This is an account of results in US10858352B2, “Pharmaceutical compounds” (Heptares Therapeutics Limited, priority 2018, dated 2020).

Protein sequences, listed by entry. Tags and fused reporters are not part of them.
UniProt P08173, whole entry: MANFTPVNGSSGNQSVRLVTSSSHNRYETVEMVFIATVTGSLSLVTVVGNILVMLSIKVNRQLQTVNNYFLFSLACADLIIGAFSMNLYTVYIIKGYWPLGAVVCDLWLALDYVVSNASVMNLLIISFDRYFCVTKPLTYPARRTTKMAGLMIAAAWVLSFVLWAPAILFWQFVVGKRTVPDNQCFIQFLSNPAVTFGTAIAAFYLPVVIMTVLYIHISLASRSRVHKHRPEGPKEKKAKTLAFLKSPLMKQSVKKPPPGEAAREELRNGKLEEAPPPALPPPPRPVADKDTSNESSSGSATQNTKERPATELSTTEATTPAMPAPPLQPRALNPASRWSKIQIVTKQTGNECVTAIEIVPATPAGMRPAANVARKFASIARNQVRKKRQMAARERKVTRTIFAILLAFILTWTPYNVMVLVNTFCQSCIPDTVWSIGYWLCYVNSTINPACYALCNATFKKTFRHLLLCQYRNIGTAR
UniProt P20309, whole entry: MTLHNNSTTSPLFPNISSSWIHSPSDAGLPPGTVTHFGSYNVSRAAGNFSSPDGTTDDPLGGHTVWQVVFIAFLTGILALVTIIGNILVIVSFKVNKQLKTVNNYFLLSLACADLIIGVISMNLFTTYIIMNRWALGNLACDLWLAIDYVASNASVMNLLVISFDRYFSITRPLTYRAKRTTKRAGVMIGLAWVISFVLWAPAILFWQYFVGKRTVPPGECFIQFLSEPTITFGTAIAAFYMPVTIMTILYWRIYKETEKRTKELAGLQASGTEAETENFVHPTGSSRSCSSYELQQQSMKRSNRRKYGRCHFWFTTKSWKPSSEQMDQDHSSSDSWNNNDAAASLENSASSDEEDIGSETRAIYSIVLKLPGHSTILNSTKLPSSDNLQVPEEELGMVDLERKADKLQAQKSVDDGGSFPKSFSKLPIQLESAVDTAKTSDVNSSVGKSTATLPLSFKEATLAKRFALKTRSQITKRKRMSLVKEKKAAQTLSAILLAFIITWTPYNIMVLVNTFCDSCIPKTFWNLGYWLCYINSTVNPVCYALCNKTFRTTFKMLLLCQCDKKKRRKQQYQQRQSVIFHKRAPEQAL
UniProt P08172, whole entry: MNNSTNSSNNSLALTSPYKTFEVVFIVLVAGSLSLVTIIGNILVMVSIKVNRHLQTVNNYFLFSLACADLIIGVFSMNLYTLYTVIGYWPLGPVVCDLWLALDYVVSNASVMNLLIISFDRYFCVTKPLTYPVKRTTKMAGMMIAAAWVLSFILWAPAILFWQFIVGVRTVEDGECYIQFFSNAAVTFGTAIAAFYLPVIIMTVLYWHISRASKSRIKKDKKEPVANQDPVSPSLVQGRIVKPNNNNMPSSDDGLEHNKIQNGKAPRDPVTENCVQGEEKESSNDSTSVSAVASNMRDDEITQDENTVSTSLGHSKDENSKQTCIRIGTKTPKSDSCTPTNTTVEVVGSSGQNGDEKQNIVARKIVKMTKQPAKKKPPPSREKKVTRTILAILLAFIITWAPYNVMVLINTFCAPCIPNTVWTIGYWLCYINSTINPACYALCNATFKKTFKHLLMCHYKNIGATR
UniProt P11229, whole entry: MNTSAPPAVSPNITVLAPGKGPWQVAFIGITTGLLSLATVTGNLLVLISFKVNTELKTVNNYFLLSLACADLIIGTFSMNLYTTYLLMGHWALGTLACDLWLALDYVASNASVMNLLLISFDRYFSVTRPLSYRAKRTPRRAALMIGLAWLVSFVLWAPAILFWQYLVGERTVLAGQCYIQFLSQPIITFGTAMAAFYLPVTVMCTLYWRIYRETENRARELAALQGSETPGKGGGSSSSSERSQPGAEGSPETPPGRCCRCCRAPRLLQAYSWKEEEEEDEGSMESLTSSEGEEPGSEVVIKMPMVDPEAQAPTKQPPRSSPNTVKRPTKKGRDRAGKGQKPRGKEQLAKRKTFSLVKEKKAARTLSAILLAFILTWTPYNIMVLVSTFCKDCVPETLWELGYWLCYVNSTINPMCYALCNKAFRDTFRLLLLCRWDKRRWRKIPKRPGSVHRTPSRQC

The target of experiment [1] is human muscarinic M4 receptor (Homo sapiens, UniProt P08173). The experiment in a line: Alphascreen Surefire phospho-ERK1/2 functional assay, M4. The format is cell-based. Particulars: CHO cells stably expressing human M4; for % Emax cf. ACh (M4): Emax relative to ACh; for pEC50 M4: agonist 5 min, 37° C. In general terms: In Alpha technology, singlet oxygen from a donor bead excites a nearby acceptor bead.

Experiment [2] concerns the target human muscarinic M3 receptor (Homo sapiens, UniProt P20309). The experiment in a line: Alphascreen Surefire phospho-ERK1/2 functional assay, M3. The class given is cell-based. The following applies: CHO cells stably expressing human M3; for % Emax cf. ACh (M3): Emax relative to ACh; for pEC50 M3: agonist 5 min, 37° C.
The target of experiment [3] is human muscarinic M2 receptor (Homo sapiens, UniProt P08172). The experiment in a line: Alphascreen Surefire phospho-ERK1/2 functional assay, M2. The format is cell-based. The following applies: CHO cells stably expressing human M2; for % Emax cf. ACh (M2): Emax relative to ACh; for pEC50 M2: agonist 5 min, 37° C.
The target in experiment [4] is human muscarinic M1 receptor (Homo sapiens, UniProt P11229). The experiment in a line: Alphascreen Surefire phospho-ERK1/2 functional assay, M1. Particulars: CHO cells stably expressing human M1; for % Emax cf. ACh (M1): Emax relative to ACh; for pEC50 M1: agonist 5 min, 37° C.

With `CCN(C)C(=O)[C@H]1[C@@H]2CN(C3CCC4(C3)CN(c3nc(C)no3)C4)C[C@@H]21` (single isomer, unassigned), in experiment [1], the “% Emax cf. ACh (M4)” value was “(21) %” and the “pEC50 M4” value was less than 4.70. Moreover, in experiment [2], the “% Emax cf. ACh (M3)” value was “(15) %” and the “pEC50 M3” value is given as less than 4.70. For the same compound, in experiment [3], the “% Emax cf. ACh (M2)” value was “(14) %” and the “pEC50 M2” value is less than 4.70. In experiment [4], the “% Emax cf. ACh (M1)” value was “(76) %” and the “pEC50 M1” value was 6.92.
As for `Cc1noc(N2CC3CCC2CC3N2CCC(C(=O)NC3(C)CCC3)CC2)n1` (single isomer, unassigned), in experiment [1], the “% Emax cf. ACh (M4)” value is reported as “(75) %” and the “pEC50 M4” value worked out at 5.33. In experiment [2], the “% Emax cf. ACh (M3)” value is given as “(6) %” and the “pEC50 M3” value was less than 4.70. Also, in experiment [3], the “% Emax cf. ACh (M2)” value is listed as “(18) %” and the “pEC50 M2” value is less than 4.70. Moreover, in experiment [4], the “% Emax cf. ACh (M1)” value was “(113) %” and the “pEC50 M1” value stood at 6.60.
Regarding `Cc1noc(N2CC3CCC2CC3N2CCC(C(=O)NCC3(C)CCC3)CC2)n1` (single isomer, unassigned) [12-16 Isomer 1], in experiment [1], the “% Emax cf. ACh (M4)” value is on record as “(104) %” and the “pEC50 M4” value was 7.41. Further, in experiment [2], the “% Emax cf. ACh (M3)” value is recorded as “(13) %” and the “pEC50 M3” value was less than 4.70. Further, in experiment [3], the “% Emax cf. ACh (M2)” value is given as “(62) %” and the “pEC50 M2” value was 6.36. In addition, in experiment [4], the “% Emax cf. ACh (M1)” value is listed as “(108) %” and the “pEC50 M1” value came to 7.49.
Regarding `Cc1noc(N2CC3CCC2CC3N2CCC(C(=O)NCC3(C)CCC3)CC2)n1` (single isomer, unassigned) [12-16 Isomer 2], in experiment [1], the “% Emax cf. ACh (M4)” value is listed as “(62) %” and the “pEC50 M4” value came out at 6.25. In experiment [2], the “% Emax cf. ACh (M3)” value is recorded as “(4) %” and the “pEC50 M3” value is recorded as less than 4.70. Moreover, in experiment [3], the “% Emax cf. ACh (M2)” value is given as “(10) %” and the “pEC50 M2” value is reported as less than 4.70. In addition, in experiment [4], the “% Emax cf. ACh (M1)” value is “(118) %” and the “pEC50 M1” value was 7.28.
